Results on 1 molecule are retold here after article PMC5613693, “Interactions of Desmethoxyyangonin, a Secondary Metabolite from Renealmia alpinia, with Human Monoamine Oxidase-A and Oxidase-B” (Evidence-based Complementary and Alternative Medicine : eCAM, 2017).

Sequences of proteins named here, by UniProt entry; tags and fusion partners are left off.
UniProt P21397, whole entry: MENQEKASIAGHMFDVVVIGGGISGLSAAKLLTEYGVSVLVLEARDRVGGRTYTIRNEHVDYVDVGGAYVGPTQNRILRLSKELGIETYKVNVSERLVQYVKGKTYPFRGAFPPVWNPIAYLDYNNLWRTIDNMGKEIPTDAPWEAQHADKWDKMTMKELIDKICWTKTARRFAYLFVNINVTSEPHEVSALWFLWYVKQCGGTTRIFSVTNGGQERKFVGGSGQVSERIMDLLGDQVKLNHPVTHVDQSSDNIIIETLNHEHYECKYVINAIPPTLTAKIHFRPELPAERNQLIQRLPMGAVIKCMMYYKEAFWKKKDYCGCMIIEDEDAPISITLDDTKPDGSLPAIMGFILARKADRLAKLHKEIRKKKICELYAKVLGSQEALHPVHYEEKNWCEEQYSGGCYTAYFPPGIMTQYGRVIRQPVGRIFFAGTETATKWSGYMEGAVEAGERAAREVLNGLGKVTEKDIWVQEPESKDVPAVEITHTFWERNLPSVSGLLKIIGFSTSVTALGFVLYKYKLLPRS

Molecules are shown by their SMILES.

This test deals with T1, recombinant human MAO-A (Homo sapiens, UniProt P21397).
T1 construct: purchased BD Biosciences (Bedford, MA, USA); host or cells: baculovirus (Autographa californica) infected insect cells (BTI-TN-5B1-4)
The test can be described thus: Fluorometric kynuramine deamination assay, MAO-A inhibition (IC50). It counts as biochemical. Conditions: kynuramine 80 μM; mean ± SD of triplicate; read-out: Monoamine oxidase-A IC50. On the procedure: Pure recombinant human monoamine oxidases (MAO-A and MAO-B) enzymes overexpressed in baculovirus (Autographa californica) infected insect cells (BTI-TN-5B1-4) were purchased from BD Biosciences, (Bedford, MA, USA).
Stock solutions of the test compounds/extracts were prepared in DMSO and diluted further in 0.1 M potassium phosphate buffer (pH 7.4) to obtain the desired concentrations. MAO-A and MAO-B activities were determined by fluorometric kynuramine deamination assay set up in 384-well solid white flat-bottom plates. MAO-A and MAO-B inhibition activities (IC50 values) were determined using fixed concentration of the substrate kynuramine and varying concentrations of the test compounds or extracts. The enzyme reactions were carried out in 0.1 M potassium phosphate buffer (pH-7.4). […] The reaction mixtures with buffer/substrate/inhibitor were preincubated for 10 minutes at 37°C, followed by addition of MAO-A and MAO-B to initiate the reaction. The solid white microplates were incubated for 20 minutes at 37°C and the enzymatic reaction was stopped by addition of 28 µL of 2 N NaOH to each well. The deaminated product of kynuramine, which spontaneously cyclizes to 4-hydroxyquinoline, was measured fluorometrically at 320 nm excitation and 380 nm emission wavelengths with a plate reader (SpectraMax M5, Molecular Devices, Sunnyvale, CA, USA). […]

The term IC50 denotes the concentration that inhibits the measured activity by half.

For `NNCCc1ccccc1` [Phenelzine, phenelzine, reference compound], the half-inhibitory concentration (IC50) was found to be 235 ± 21.8 nM.
